pIC50: −log10 of the molar value.
Target: IDH1 R132H enzyme (Homo sapiens (Human), UniProt O75874, R132H)
Experiment: Mutant IDH1 R132H biochemical assay
Settings: read-out: Mutant IDH1 R132H IC50; NADPH consumption, luminescent readout; 1.5 nM enzyme, 1 μM NADPH, 250 μM α-KG, 30 minutes, 32° C.
Experimental: Mutant IDH1 R132H Biochemical Assay mIDH1 catalyzes the NADPH-dependent reduction of alpha-ketoglutarate (a-KG) to (2R)-2-hydroxyglutarate (2-HG). NADPH consumption was measured by luminescent readout.
The biochemical reactions were performed at 32° C. in 384-well plates using a reaction volume of 41 μL and the following assay buffer conditions: 50 mM Tris pH 7.5, 100 mM NaCl, 20 mM MgCl2, 0.05% BSA, 0.01% Brij, 1 μM NADPH, and 250 μM α-KG. The IDH1 R132H enzyme was used in a final concentration of 1.5 nM. Test compounds were used in a concentration range between 0.002 and 10 μM. The final DMSO concentration was 2.4%.
The reaction was incubated for 30 minutes, then 40 μL of detection mix (0.75 μg/ml Luciferase, 0.02 U/ml Oxidoreductase, 4 μg/mL FMN, 2 μL/ml decanal/ethanol, 50 mM Tris pH 7.5, 0.5% Glycerin, 0.01% Tween-20, 0.05% BSA) was added. Luminescence was measured on a luminescent reader (10 seconds measuring time, 1 second integration period, 30% sensitivity). The decrease in luminescence is proportional to mIDH1 activity. IC50 values are determined by interpolation from plots of relative luminescence versus inhibitor concentration.

The chains behind the UniProt entries cited, without tags or fusion partners.
UniProt O75874, whole entry R132H: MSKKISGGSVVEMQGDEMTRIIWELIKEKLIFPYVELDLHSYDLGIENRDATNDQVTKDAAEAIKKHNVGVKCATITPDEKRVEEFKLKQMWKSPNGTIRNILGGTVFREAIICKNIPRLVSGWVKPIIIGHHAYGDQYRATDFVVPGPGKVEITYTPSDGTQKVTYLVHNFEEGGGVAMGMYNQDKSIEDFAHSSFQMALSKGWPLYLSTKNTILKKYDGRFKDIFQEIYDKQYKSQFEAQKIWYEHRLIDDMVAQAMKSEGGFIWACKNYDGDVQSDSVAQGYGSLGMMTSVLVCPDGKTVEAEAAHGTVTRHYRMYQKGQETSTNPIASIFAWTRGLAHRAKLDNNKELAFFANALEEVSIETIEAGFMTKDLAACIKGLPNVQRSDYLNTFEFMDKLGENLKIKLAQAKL

- pIC50: 7.42
SMILES: COC(=O)c1cc2nc(Nc3ccc(OC(F)(F)F)cc3)n([C@@H]3C[C@H](C)CC[C@H]3C(C)C)c2cc1C

Reference: patent US10370339B2, “N-Methylbenzimidazoles as mIDH1 inhibitors” (BAYER PHARMA AKTIENGESELLSCHAFT, priority 2015, dated 2019)
